Source: US20250100993A1, “2-SUBSTITUTED THIAZOLE HSD17B13 INHIBITORS AND USES THEREOF” (Inipharm, Inc., priority 2022, published 2025)

Protein sequences, listed by entry. Tags and fused reporters are not part of them. Residues count along the entry.
UniProt Q7Z5P4, 20-300 limits assumed: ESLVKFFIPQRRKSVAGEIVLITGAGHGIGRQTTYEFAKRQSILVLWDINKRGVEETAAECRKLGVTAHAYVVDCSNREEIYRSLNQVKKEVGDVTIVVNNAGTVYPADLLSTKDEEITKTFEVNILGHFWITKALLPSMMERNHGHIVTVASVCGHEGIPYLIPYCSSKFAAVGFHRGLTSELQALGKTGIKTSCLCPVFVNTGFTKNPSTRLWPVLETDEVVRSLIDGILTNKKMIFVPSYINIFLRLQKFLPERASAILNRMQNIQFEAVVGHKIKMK

Target: HSD17B13 (Homo sapiens (Human), UniProt Q7Z5P4)
Assay: LC/MS estrone detection assay for HSD17B13 activity (estradiol to estrone)
Settings: read-out: IC50 with Estradiol, estradiol substrate
Experimental: The liquid chromatography/mass spectrometry (LC/MS) estrone detection assay monitors the conversion of estradiol to estrone by HSD17B13. This assay was undertaken in a 96 wp format (Eppendorf deep well Plate 96/500) in an 80 μl reaction volume containing: 4 μM of Estradiol (E2; Cayman; Ser. No. 10/006,315), 6 mM NAD+(Sigma; #N0623) and 30 nM HSD17B13 enzyme (in-house; E. coli expressed His-tagged, purified, soluble protein) in a reaction containing 1M potassium phosphate buffer pH 7.4, with 0.5% vehicle (DMSO). Reactions were incubated for 2 hours at 26.5° C., and estradiol (E2) conversion to estrone (E1) was quantitated by LC-MS/MS based analyte detection for both E2 and E1 using LCMS grade reagents.
Reactions were terminated by the addition of two volumes of acetonitrile (MeCN; LCMS grade; CAS #75/05/8) containing deuterated (D4)-E1 used as internal standard (Clear Synth; #CS-T-54273; 500 ng/mL final concentration). […] Aqueous linearity for E2 and E1 were included for quantification.
Analysis of samples was undertaken on a XBridge BEH C18 column (Waters; #186003033) using 0.1% Diethyl Amine in MeCN (mobile phase A; DEA CAS #109-89-7) and 0.1% Diethyl Amine in milli-Q water (mobile phase B) in a 3 min gradient allowing 25% B. Analytes were detected in negative mode using MRM analysis, with E2 having a RT of 1.85 min and E1 having a RT of 2 min. […]

O=C(Nc1scnc1C(=O)NCc1ccc(C(F)(F)F)nc1)c1cc(Cl)c(O)c(Cl)n1
IC50: 500 to 1000 nM
